Literature values as cited in patent publication US4866036A, “Dipeptidyl 5-0,6-0-acyl-2-amino-2-deoxy-D-glucofuranose compositions and methods of use in aids-immunocompromised human hosts” (priority 1987, dated 1989).

Conditions: clinical trials or clinical use

Question: With `NC(=O)c1ncn([C@@H]2O[C@H](CO)[C@@H](O)[C@H]2O)n1` [Ribavirin, 1β-D ribofuranosyl 1,2,4-triazole 3-carboxamide] as the compound, how does the “toxicity / adverse effects in patients” value read?
Answer: well tolerated
